# AlphaSeq binding of Ab-95 light chain variants to a spike HR2 peptide

Antigen: PDVDLGDISGINAS, a 14-residue peptide of the SARS-CoV-2 spike HR2 region.

The variants keep the heavy chain, the linker and the frameworks of Ab-95 (scFv order VH, a (GGGGS)3 linker, VL).
VH: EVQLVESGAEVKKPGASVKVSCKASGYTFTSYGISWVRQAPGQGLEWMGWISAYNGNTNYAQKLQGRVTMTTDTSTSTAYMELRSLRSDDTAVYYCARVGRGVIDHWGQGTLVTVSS
VL: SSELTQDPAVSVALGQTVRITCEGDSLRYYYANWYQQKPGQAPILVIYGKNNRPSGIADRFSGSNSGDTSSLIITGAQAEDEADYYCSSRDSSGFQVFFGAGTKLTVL

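Phage display of a naive human antibody library on the peptide gave the parent. Variants in AAYL52 differ from the parent at up to three CDR positions; double and triple changes were sampled at random. The scFvs were displayed on barcoded MATa yeast, the peptide on MATalpha yeast. Pairs that bind mate more often; barcode pairs of the diploids are counted by sequencing. Read counts were normalised to the haploid input and turned into Kd by a linear fit to BCL2-family pairs of known affinity, for each replicate. Mating was done three times.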

Variants are written as CDR1, CDR2 and CDR3 of the light chain (limits as in the source). Parent: EGDSLRYYYAN, GKNNRPS, SSRDSSGFQVF.
Values are apparent Kd, the geometric mean of the replicates that gave a signal; lower means stronger binding.
Where no diploid with the target was found in any replicate, the entry reads "no signal": below detection, most likely a poor binder, though not proof of it.
The list is sorted by this average, lowest first, undetected variants last.
Nonspecific signal, from three strains lacking the peptide, appeared in 28% of pairings of library AAYL52, centred on 8.2 µM (5% of these signals below 800 nM); values are not corrected for it.

CDR-L1	CDR-L2	CDR-L3	Kd	replicates with signal
EGDSLRYEYAN	GKNNRPS	SERDSEGFQVF	40 nM	3/3
QGDSLRYVYAN	GKNQRPS	SSRDSSGFQVF	43 nM	3/3
EGDSLRYYHAN	GKNNRPS	SSRDCSFFQVF	59 nM	3/3
EGDSLDYYYAN	GKNNRPS	SSRDSSGFNVF	90 nM	3/3
EGCSLNYYDAN	GKNNRPS	SSRDSSGFQVF	100 nM	3/3
EGDSLRYYYAN	GKNNRPS	SSRDSSNTQVF	110 nM	3/3
NGDSLRYYGAN	GKNNRPS	SSRDSSGFPVF	120 nM	3/3
EGDSLVYPYAN	GKNNRPS	SSRDSSGFQVT	130 nM	3/3
EGDSLRHYYAN	GKNNRPS	SSRRSSGFQVL	170 nM	3/3
EGDSLRYIYAD	RKNNRPS	SSRDSSGFQVF	180 nM	1/3
EGKSLRYYYAN	GKNNRPS	SCRDSSGFQAF	180 nM	3/3
EGDSLRYYYAN	GKNNRPS	SGRESSGFQVS	300 nM	3/3
EGDSLLYYYAN	GHNNRPS	SSRDSSLFQVF	310 nM	3/3
EGDSLRYYYAN	GDNNRPS	SSRESSGFPVF	340 nM	3/3
EGDSLRYDYAN	GRNNIPS	SSRDSSGFQVF	340 nM	3/3
EGDSLVYYYAN	GKNNRPS	SSRDGSGYQVF	380 nM	3/3
EGDSLRYYYAN	GKNNRPS	KELDSSGFQVF	410 nM	3/3
EGDSLVYYYAN	GKNNRAS	SSRDSSGFQVF	520 nM	3/3
EGDSLRYYYMN	GKNNRPS	SSRDSVGFQVF	900 nM	2/3
EGDSLRYYYAN	GKNNRPS	SSRDSRGFEVF	910 nM	3/3
EGDSLRYYYAN	GKENRPS	SSMDSSGFKVF	980 nM	3/3
EGDSLRYYLAN	GKNNRPY	SSRDHSGFQVF	1.0 µM	3/3
EGDSLRYYAAN	GKLNRPS	SSRDSSGGQVF	1.2 µM	1/3
EMDSLRYYYAN	GKNNRPS	SFRDSSGFQLF	1.4 µM	2/3
ECDSLVYTYAN	GKNNRPS	SSRDSSGFQVF	1.5 µM	3/3
ENDSLRYYWAN	GKNNRPS	SSRDSSGFNVF	1.6 µM	2/3
EGDSLDYYYQN	GKNNRPS	SSRDMSGFQVF	1.6 µM	2/3
EGDSLRHYYHN	GKNNRPS	SSRDSTGFQVF	2.1 µM	3/3
EGDSLRYYYAN	GKNCRPS	SSRDTSGFQVF	2.4 µM	3/3
EGDSQRYYYAN	GKNNRPS	SYRDSSGFQVF	2.4 µM	2/3
EGDSLRYYYAN	GKANVPS	SSRDSSGFEVF	2.5 µM	3/3
EGDTLRYYYAN	GKNNRPS	SSGDDSGFQVF	2.6 µM	3/3
EGDSEKYYYAN	GKNNRPS	SSRDSSGFQVF	3.1 µM	3/3
EYDSLRYYYAN	GKNNRPS	SSRGLSGFQVF	3.3 µM	2/3
EGDWLRYYYAN	GKNNRYS	SSTDSSGFQVF	3.3 µM	2/3
EGDSLRYYYAN	GKNNRPS	DSRDSKGFFVF	3.4 µM	3/3
EGDSLRYYYAN	GKKNRPS	SSRDSSGFQKG	4.2 µM	1/3
EVDSLRYYYAN	SKDNRPS	SSRDSSGFQVF	4.4 µM	2/3
EGDSLRYYYAN	GKNNMPS	SSRDSSAFQVF	4.6 µM	3/3

The remaining entries, values ahead:

Kd	replicates with signal	CDR-L1	CDR-L2	CDR-L3
5.1 µM	1/3	EIDSLRYYYAN	GKNNRPS	SSRDSFGAQVF
5.2 µM	3/3	IGDSLRYYYAN	GKNNIPS	SSRDSSGFQKF
5.8 µM	1/3	AGDSLRYYYAN	GFNNRPS	SSCDSSGFQVF
5.8 µM	1/3	EGDSRRWYYAN	GKNNRPS	SSRDISGFQVF
6.1 µM	1/3	EGDSLRMYYAN	GKNNRPS	SSRDSSGQQPF
6.4 µM	3/3	EGDTLRYYYAN	GKNKRPS	SSRDMSGFQVF
7.1 µM	3/3	EGDSLRKYWSN	GKNNRPS	SSRDSSGFQVF
7.8 µM	1/3	EGDGLRYYYAR	GKNNRPS	SSRDSSGFQVF
8.1 µM	1/3	EPDSLRYYYAN	GKNNRPW	KSRDSSGFQVF
8.4 µM	1/3	EMDSLRYYYAN	GKNNRPS	SSQDSSGFQVF
8.4 µM	3/3	EGDSLRYYYAR	GKNNRPS	HSDDSSGFQVF
8.7 µM	2/3	EHDSLRYYYAN	GRNNRLS	SSRDSSGFQVF
8.8 µM	3/3	EGISLRYYYAN	HKNNRPS	SSWDSSGFQVF
10 µM	2/3	EGDYLRYYYAQ	GKNNRPS	FSRDSSGFQVF
11 µM	3/3	EVDSLRYYYAN	QMNNRPS	SSRDSSGFQVF
12 µM	2/3	EGDSHRYYYAN	GKQNRPS	SSRDSSGFQVW
12 µM	3/3	EGDSLRYYYFN	MKNGRPS	SSRDSSGFQVF
15 µM	1/3	EGDSLRYYYAN	NKNNRPS	SSRDSQQFQVF
16 µM	2/3	DGDSLRYYYAN	FKNNRPI	SSRDSSGFQVF
17 µM	3/3	EGDSLRYYYAS	GKNNRPM	SSRDSSGQQVF
19 µM	1/3	EGDSLRYDYAN	FKNNDPS	SSRDSSGFQVF
20 µM	1/3	EGDSLRNYYAN	GKNNRVS	SSRDSSKFQVF
22 µM	1/3	EGDSLRYYQAN	LKNNRPS	SSRDSSGFYVF
23 µM	2/3	EGDSGRYYYAD	GKNYRPS	SSRDSSGFQVF
24 µM	2/3	EGDSLRYYYAN	GKNNRPL	LSRDSGGFQVF
27 µM	2/3	EGDSDRYYYAN	GKFERPS	SSRDSSGFQVF
29 µM	3/3	EGDSLRYYFAN	GKNNPPS	SSRDSSGFRVF
33 µM	3/3	EGDSLHYYYAN	GKNGRPS	SSRDSSHFQVF
34 µM	1/3	EGDCLRYYYHN	GKNNRPS	SSLDSSGFQVF
35 µM	2/3	EGDSLRYMYAN	GKNNYFS	SSRDSSGFQVF
37 µM	2/3	EGDSLRYYYAN	CKNNRPS	SSRDSRGFQEF
38 µM	2/3	EGDSLRYYYAN	GKNNGPS	SSLDSSGFYVF
47 µM	1/3	EGDSLRYYYAN	VANNRPS	SSRDSAGFQVF
80 µM	1/3	EGDSLRYYNAD	GKNNRPS	SSRDSSGFQVF
98 µM	1/3	EGDCLRYLYAN	GKNNRPS	SSRDSSGFGVF
100 µM	1/3	MEDSLRYYYAN	GKNNRPS	SSRDSSGFQVF
110 µM	1/3	EGDSLRYYYAN	GKNNRYS	PWRDSSGFQVF
no signal	0/3	WGDSLRYYYAN	GKNNRPS	SFRDSSGFQPF
no signal	0/3	EGDSLRYYYAN	KKNNRPS	SSRRQSGFQVF
no signal	0/3	EGDSLRYEYQN	GKNNRQS	SSRDSSGFQVF

Picked from the list: the 11 lowest averages where every replicate gave a value.

CDR-L1	CDR-L2	CDR-L3	Kd	replicates with signal
EGDSLRYEYAN	GKNNRPS	SERDSEGFQVF	40 nM	3/3
QGDSLRYVYAN	GKNQRPS	SSRDSSGFQVF	43 nM	3/3
EGDSLRYYHAN	GKNNRPS	SSRDCSFFQVF	59 nM	3/3
EGDSLDYYYAN	GKNNRPS	SSRDSSGFNVF	90 nM	3/3
EGCSLNYYDAN	GKNNRPS	SSRDSSGFQVF	100 nM	3/3
EGDSLRYYYAN	GKNNRPS	SSRDSSNTQVF	110 nM	3/3
NGDSLRYYGAN	GKNNRPS	SSRDSSGFPVF	120 nM	3/3
EGDSLVYPYAN	GKNNRPS	SSRDSSGFQVT	130 nM	3/3
EGDSLRHYYAN	GKNNRPS	SSRRSSGFQVL	170 nM	3/3
EGKSLRYYYAN	GKNNRPS	SCRDSSGFQAF	180 nM	3/3
EGDSLRYYYAN	GKNNRPS	SGRESSGFQVS	300 nM	3/3

Reference: Engelhart et al. 2022, doi:10.1038/s41597-022-01779-4. File: FLAb, binding data.